Values of other authors as cited in patent US10954258B2, “STAT3 dimerization inhibitors” (H. LEE MOFFITT CANCER CENTER AND RESEARCH INSTITUTE, INC., priority 2012, dated 2021).

Amino acid sequences for entries named in this document (tags omitted).
UniProt P40763, whole entry, species assumed: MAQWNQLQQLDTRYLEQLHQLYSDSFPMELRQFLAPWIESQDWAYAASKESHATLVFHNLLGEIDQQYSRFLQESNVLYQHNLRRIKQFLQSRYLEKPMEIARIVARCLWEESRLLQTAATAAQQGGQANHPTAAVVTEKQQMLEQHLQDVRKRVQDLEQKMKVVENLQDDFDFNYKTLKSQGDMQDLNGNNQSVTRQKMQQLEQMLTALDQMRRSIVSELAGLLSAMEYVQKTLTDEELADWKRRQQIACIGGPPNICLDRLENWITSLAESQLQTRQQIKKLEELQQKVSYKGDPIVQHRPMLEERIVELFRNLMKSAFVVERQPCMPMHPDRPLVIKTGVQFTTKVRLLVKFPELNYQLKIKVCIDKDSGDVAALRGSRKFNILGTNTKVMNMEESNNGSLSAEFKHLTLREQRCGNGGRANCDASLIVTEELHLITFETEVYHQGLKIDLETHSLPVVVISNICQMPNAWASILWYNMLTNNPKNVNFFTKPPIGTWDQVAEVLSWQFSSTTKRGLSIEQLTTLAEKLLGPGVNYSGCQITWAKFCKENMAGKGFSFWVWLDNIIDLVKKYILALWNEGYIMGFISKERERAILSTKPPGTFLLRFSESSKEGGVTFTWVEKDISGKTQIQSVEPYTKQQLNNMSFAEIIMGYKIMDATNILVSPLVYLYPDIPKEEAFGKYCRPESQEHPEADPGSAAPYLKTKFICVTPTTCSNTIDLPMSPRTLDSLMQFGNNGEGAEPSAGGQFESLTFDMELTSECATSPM

Target: STAT3 (Homo sapiens, UniProt P40763)
Conditions: cited from earlier work

For Cc1ccc(S(=O)(=O)OCC(=O)Nc2ccc(C(=O)O)c(O)c2)cc1 [Compound S3I-201], the “STAT3:STAT3 complex formation, STAT3 DNA-binding and transcriptional activities” value is given as “inhibited STAT3:STAT3 complex formation and STAT3 DNA-binding and transcriptional activities”.
